Among the data in ChEMBL document CHEMBL4814005, “Pragmatic recruitment of memantine as the capping group for the design of HDAC inhibitors: A preliminary attempt to unravel the enigma of glioblastoma” (Eur J Med Chem, 2021) are IC50 values, retold here.

Chains of the proteins cited; added tags and fusions are not shown.
UniProt Q13547, whole entry: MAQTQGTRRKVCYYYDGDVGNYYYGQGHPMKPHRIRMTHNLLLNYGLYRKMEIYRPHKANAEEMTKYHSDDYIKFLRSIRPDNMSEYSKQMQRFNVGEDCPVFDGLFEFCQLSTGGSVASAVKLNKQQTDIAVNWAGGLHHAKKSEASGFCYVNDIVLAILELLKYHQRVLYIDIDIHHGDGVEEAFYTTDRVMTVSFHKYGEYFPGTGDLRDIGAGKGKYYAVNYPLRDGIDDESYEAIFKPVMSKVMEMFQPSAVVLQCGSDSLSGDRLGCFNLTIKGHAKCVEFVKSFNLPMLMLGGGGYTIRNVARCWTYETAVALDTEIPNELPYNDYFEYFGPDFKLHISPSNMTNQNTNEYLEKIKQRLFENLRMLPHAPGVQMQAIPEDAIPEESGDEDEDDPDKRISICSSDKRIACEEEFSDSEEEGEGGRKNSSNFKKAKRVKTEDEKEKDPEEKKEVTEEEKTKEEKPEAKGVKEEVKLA

Structures are written as SMILES.

The assay has as its target Histone deacetylase 1 (Homo sapiens, UniProt Q13547). In words: Inhibition of human recombinant HDAC1 expressed in baculovirus infected insect cells using [RHKK(Ac)] fluorogenic substrate.

What is called IC50 is the concentration needed to halve the response being measured.

As to `CC12CC3CC(C)(C1)CC(NCc1ccc(/C=C/C(=O)NO)cc1)(C3)C2`, the IC50 was 1330 nM.
